Earlier results on one substance are cited in PMC6589951 (Therapeutic Advances in Medical Oncology, 2019).

The data set relates to PVNS. The note with it: 28 patients with PVNS; cited from earlier work.

On to emactuzumab: anti CSF1R antibody, for which the CR rate is listed as 7%, the PR rate is listed as 79%, the disease progression result was “no patient had disease progression” and the prolonged stable disease is given as 11%.
